Earlier results in US20030105046A1, “Interleukin converting enzyme (ICE) and central nervous system damage” (The General Hospital Corporation, priority 1997, published 2003).

Target: T1, CPP32/Yama/Apopain (Homo sapiens, UniProt P42574)
T1 sequence (P42574 29-175 limits assumed): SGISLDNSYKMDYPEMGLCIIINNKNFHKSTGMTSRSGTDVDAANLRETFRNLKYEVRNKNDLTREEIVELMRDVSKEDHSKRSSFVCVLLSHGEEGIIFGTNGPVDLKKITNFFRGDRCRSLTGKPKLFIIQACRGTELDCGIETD
T1 sequence (P42574 176-277 limits assumed): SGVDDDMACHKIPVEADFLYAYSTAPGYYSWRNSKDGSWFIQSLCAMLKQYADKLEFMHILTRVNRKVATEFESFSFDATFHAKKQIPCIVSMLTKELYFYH
Conditions: Nicholson et al., Nature 376 (1995); cited from earlier work

Ac-DEVD-CHO
Dose inhibiting PARP cleavage: 1 nM
